# Curated experimental data: vapor pressure values

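The numbers are reported measurements, compiled and curated for the OPERA QSAR suite. The files give a single number for a compound and property, which may rest on several reports. Conditions of the individual experiments are not part of the data. Where a salt, mixture or single isomer is drawn, the source does not say that exactly this form was tested. Unmarked limits or estimates from the upstream databases cannot be ruled out.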

Vapor pressure is log10 of mmHg; the set covers 15 to 30 °C, mostly 20 to 25 °C.
"n/a" marks a cell with nothing listed here.
The databases behind each value are named after "via".

SMILES | name | vapor pressure (log10 mmHg) | via
CNc1cccc2c1C(=O)c1ccccc1C2=O | 1-(Methylamino)anthraquinone | -8.155 | OCHEM, eChemPortal
NC(=O)c1c(Cl)cccc1Cl | 2,6-Dichlorobenzamide | -6.824 | OCHEM
CCCCCCCCCC#N | Decanenitrile | -1.57 | eChemPortal
NC(=O)c1ccc[n+](Cc2ccccc2)c1.[Cl-] | N-Benzylniacinamide, chloride | -5.292 | eChemPortal
Cc1ccc(O)c(-n2nc3ccccc3n2)c1 | 2-(2H-Benzotriazol-2-yl)-4-methylphenol | -5.959 | eChemPortal
Clc1ccc2nc(Cl)oc2c1 | 2,6-Dichlorobenzoxazole | -0.426 | eChemPortal
CC(=O)OC(C)C1CCCCC1 (configuration not stated) | 1-Cyclohexylethyl acetate | -0.539 | eChemPortal
CC(C)CCC1CCC(O)CC1 (configuration not stated) | Cyclohexanol, 4-(3-methylbutyl)- | -3.491 | eChemPortal
C=CC(=O)OCCN(C)S(=O)(=O)C(F)(F)C(F)(F)C(F)(F)C(F)(F)F | 2-(N-Methylperfluorobutylsulfonamido)ethyl acrylate | -2.721 | eChemPortal
CC(C1CC1)C(O)c1ccc(Cl)cc1 (configuration not stated) | 1-(4-Chlorophenyl)-2-cyclopropyl-1-propanol | -3.31 | eChemPortal
CO/N=C(/C(=O)OC)c1ccccc1CCl | Methyl (2E)-(2-(chloromethyl)phenyl)(methoxyimino)acetate | -4.71 | eChemPortal
C=CC(C)CCC=C(C)C (configuration not stated) | Dihydromyrcene | 0.544 | eChemPortal
CCCCc1ccc(Br)cc1 | 1-Bromo-4-butylbenzene | -2.031 | eChemPortal
CCCCCCC(C)OC(=O)CCCCC(=O)OC(C)CCCCCC (configuration not stated) | Hexanedioic acid, bis(1-methylheptyl) ester | -5.347 | eChemPortal
COC(=O)C(F)(F)C(F)OC(F)(F)C(F)(F)C(F)(F)OC(F)(F)F (configuration not stated) | Methyl perfluoro-3-(3-methoxypropoxy)-3H-propanoate | 0.271 | eChemPortal
CC(=O)c1cccc([N+](=O)[O-])c1 | 3-Nitroacetophenone | -4.415 | PubChem, eChemPortal
CC(CC(=O)[O-])CC(C)(C)C.[K+] (configuration not stated) | Hexanoic acid, 3,5,5-trimethyl-, potassium salt (1:1) | -8.745 | eChemPortal
CC(C)CC(C)OC(=O)/C=C\C(=O)OC(C)CC(C)C (stereo partly drawn) | Bis(1,3-dimethylbutyl) maleate | -1.385 | eChemPortal
COc1ccc(COC(C)=O)cc1 | 4-Methoxybenzyl acetate | -0.983 | eChemPortal
CCC(C)c1ccccc1O (configuration not stated) | 2-(Butan-2-yl)phenol | -1.651 | eChemPortal
CCCCCCCC/C=C\CCCCCCCC(=O)NCCOCCO | 9-Octadecenamide, N-[2-(2-hydroxyethoxy)ethyl]-, (9Z)- | -4.696 | eChemPortal
COCCOCCOCCOCCOC | 2,5,8,11,14-Pentaoxapentadecane | -2.928 | eChemPortal
C=CC(=O)OCCCCCCOc1ccc(C(=O)Oc2ccc(C#N)cc2)cc1 | 4-cyanophenyl-4-(6-(acryloyloxy)hexyloxy)benzoate | -10.44 | eChemPortal
C=CC(=O)NC(C)(C)CS(=O)(=O)[O-].[Na+] | 2-Acrylamido-2-methylpropanesulphonate sodium salt | -10.26 | eChemPortal
CN(C)C(=O)c1cc2cnc(Nc3ccc(N4CCN(C(=O)OC(C)(C)C)CC4)cn3)nc2n1C1CCCC1 | n/a | -7.992 | eChemPortal
Cc1ncc[nH]1 | 2-Methylimidazole | -3.362 | eChemPortal
C=CC(C)(CCC=C(C)C)OC(=O)N(C)C (configuration not stated) | n/a | -2.064 | eChemPortal
O=C1Oc2cc3c(cc2=C1c1ccccc1)OC(=O)C=3c1ccc(OCC2CCCO2)cc1 (configuration not stated) | n/a | -5.438 | eChemPortal
CCCCC1OC(C)CC(C)(C)O1 (configuration not stated) | 2-Butyl-4,4,6-trimethyl-1,3-dioxane | -0.24 | eChemPortal
CCCCCCCCCOC(=O)c1ccc(C(=O)OCCCCCCCCC)c(C(=O)OCCCCCCCCC)c1 | Trinonyl benzene-1,2,4-tricarboxylate | -9.422 | eChemPortal
COc1ccc(C(OC[C@H]2O[C@@H](n3ccc(NC(=O)c4ccccc4)nc3=O)C[C@@H]2O)(c2ccccc2)c2ccc(OC)cc2)cc1 | n/a | -9.319 | eChemPortal
CNC(=O)C(C)(C(C)C)C(C)C | Trimethyl isopropyl butanamide | -2.634 | eChemPortal
Clc1ccc(-c2cccc(Cl)c2)cc1 | 3,4'-Dichlorobiphenyl | -3.365 | OCHEM
O=C1CCC(=O)N1C(O)C(Cl)Cc1ccc2ncccc2c1 (configuration not stated) | n/a | -6.866 | eChemPortal
CC(C)CCCCCCOP(=O)(O)O | Phosphoric acid, isononyl ester | -6.011 | eChemPortal
O=C(O)Cc1c[nH]c2ccccc12 | Indole-3-acetic acid | -6.824 | OCHEM
CCCc1ccc(-c2ccc(-c3ccc(CC)cc3)c(F)c2F)cc1 | 4-Ethyl-2',3'-difluoro-4''-propyl-1,1':4',1''-terphenyl | -8.519 | eChemPortal
CC(C)(C)c1cc(CCC(=O)OCC(COC(=O)CCc2cc(C(C)(C)C)c(O)c(C(C)(C)C)c2)(COC(=O)CCc2cc(C(C)(C)C)c(O)c(C(C)(C)C)c2)COC(=O)CCc2cc(C(C)(C)C)c(O)c(C(C)(C)C)c2)cc(C(C)(C)C)c1O | Irganox 1010 | -12 | eChemPortal
Clc1cc(Cl)c(-c2c(Cl)cccc2Cl)c(Cl)c1Cl | 2,2',3,4,6,6'-Hexachlorobiphenyl | -4.325 | OCHEM
O=C(O)c1sc(C(=O)O)c2c1OCCO2 | 2,3-Dihydrothieno[3,4-b]-1,4-dioxin-5,7-dicarboxylic acid | -5.565 | eChemPortal

The last 2 entries again:

SMILES | name | vapor pressure (log10 mmHg) | via
Clc1cc(Cl)c(-c2c(Cl)cccc2Cl)c(Cl)c1Cl | 2,2',3,4,6,6'-Hexachlorobiphenyl | -4.325 | OCHEM
O=C(O)c1sc(C(=O)O)c2c1OCCO2 | 2,3-Dihydrothieno[3,4-b]-1,4-dioxin-5,7-dicarboxylic acid | -5.565 | eChemPortal

Data: OPERA 2.9 data sets, kmansouri/OPERA on GitHub.